Here are results for 15 compounds from PubChem BioAssay AID1347430 (National Center for Advancing Translational Sciences (NCATS), 2020).

Only a part is listed here, and it is no random draw. Some of these compounds have results that are not shown, active ones among them. The source made the active and inactive calls. Calls come from the whole dose curve; as a rule, active = well fitted inhibition curve with a large enough effect; inconclusive = small, poorly fitted or top-dose-only effect; inactive = flat fitted curve, though single readings scatter.
% is set by controls: 0 for no effect and ±100 for the full control effect.

In this assay the test system is Uracil-DNA glycosylase. In words: Primary qHTS assay for inhibitors of Activation Induced Cytidine Deaminase (AID): UDG Counterscreen signal. Note: nearly all actives have a fitted effect of over 65% in size. The settings on record: FRET deamination/UDG coupled assay, UDG read, 4 h; at 115 µM (top of the series). The text has this:
Assay Provider (PI) Patricia Gearhart Ph.D.
National Institute on Aging
National Institute of Health (NIH), Bethesda, MD
Assay Provider (PI) Rahul Kohli Ph.D.
Perelman School of Medicine
University of Pennsylvania, Philadelphia, PA
Activation-Induced Deaminase (AID) is a cytosine deaminase which converts cytosine into uracil within stretches of ssDNA. The presence of uracil in DNA initiates a cascade of mutagenic DNA repair to introduce point mutations and DNA double strand breaks. Specific targeting of AID to the immunoglobulin heavy chain loci (Igh) promotes mutagenesis in the antibody variable region for somatic hypermutation (SHM) or switch regions leading to class switch recombination (CSR). However, AID also plays a role in accumulating unnecessary mutations across the genome. Mis-targeting of AID results in the initiation of tumor development and leads to greater drug resistance among cancer cells when continually expressed. To identify an AID inhibitor, a small molecule library will be screened in collaboration with NCATS core facility at NIH. To confirm biological function, inhibitors will be examined in an in vitro murine B-cell activation assay and subsequent secondary validation screens. Top molecules will be further screened to identify inhibitory efficacy against a wild type primary splenocytes assay. Using these approaches, we hope to identify a small molecule with great efficacy and low toxicity for use as a molecular probe to further characterize AID's intricacies, or even as a therapeutic.
A FRET based analysis of cytosine deamination, was developed to identify potential inhibitors of AID catalytic activity. This screen has two signal output, Read 1 evaluates the AID inhibition response. The second readout (Read 2) evaluates UDG response and is uses as a counterscreen to exclude false positive inhibitors. Inhibition in AID and inactivity in the UDG signal is the desired outcome for this assay.
SEQUENCE No. (e.g., 1, 2, 3, etc.); […] (e.g., Cells, Incubation, Reagent, etc.); VALUE; DESCRIPTION
1a; Reagent; 3 uL; [4/3x] 1 uM AID/2.67 U/mL UDG
1b; Reagent; 3 uL; 2 U/mL UDG
1c; Reagent; 3 uL; 1 uM AID
2a; Compound; 46 nL; Follow-up plates (0.64 uM - 10 mM)
2b; Control; 46 nL; ATA ([…] - 10 mM)
3; Time; 10 min; incubation at room temperature
5; Time; 4 hr; incubation at room temperature
6; Reagent; 4 uL; [2x] 250 mM NaOH
7; Time; 15 sec; centrifuge at 1000 rpm
8; Time; 30 min; incubation at room temperature
9a; Detection; fluorescence (Read 1: AID); EnVision (PerkinElmer) plate reader, 540 excitation and 590 emission filters
9b; Detection; fluorescence (Read 2: UDG); EnVision (PerkinElmer) plate reader, 560 excitation and 665 emission filters
NOTES (numbers refer to sequence above)
1a; Reagents were dispensed in a medium-binding black solid-bottom Greiner plates (789176F) using a BioRptr liquid dispenser. Dispense 3 uL of [4/3x] 1 uM AID (provided by Kohli lab) and [4/3x] 2 U/mL UDG (NEB M0280L) into columns 1, 2, 5 to 48.
1b; Dispense 3 uL of [4/3x] 2 U/mL UDG into column 3.
1c; Dispense 3 uL of [4/3x] 1 uM AID into column 4.
2a; Compound (7-points [uM] (0.64; 3.2; 16; 80; 400; 2,000; 10,000; 20,000) double pin-transferred (Dip Factor = 2) using the Kalypsys (Wako USA) pintool equipped with a 1536 pinhead for a final concentration range of 7.32 nM - 114 uM.
2b; 10 mM Aurintricarboxylic Acid (Sigma A1895) (ATA, 8-point, n = 2, 1:2.5 dilution in column 2) double pin-transferred (Dip Factor = 2) using the Kalypsys (Wako USA) pintool equipped with a 1536 pinhead for a [final] range of 186 nM - 114 uM.
3; Room temperature incubation.
4; Dispense 1 uL of substrate mixture from the Kohli lab [4x] […] DJC20 and [4x] 250 nM DJC23 into columns 1 to 48 .
5; Room temperature incubation.
6; Dispense 4 uL of substrate mixture [2x] 250 mM NaOH into columns 1 to 48.
7; Centrifugation step to remove bubbles.
8; Room temperature incubation
9a; Fluorescence signal (column label AID) was read using the EnVision plate reader. […]
In general terms: qHTS replaces the single test concentration by a dilution series.
Regarding `O=C(CCC1CCCCC1)N1CCN(C/C=C/c2ccccc2)CC1`, the activity change, negative = inhibition is inactive: -6.4%.
Under `CC(CCN(CCCl)CCCl)c1ccccc1` (stereo not given) stands inactive: -2.6%; under `CN(C)C1(CNC(=O)c2cccc(Cl)c2)CCCCC1`, inactive: -1.1%; under `CN(C)C1(CNC(=O)c2ccccc2F)CCCCC1`, inactive: 4.7%.
Under `CN(C)C1(CNC(=O)c2ccccc2[N+](=O)[O-])CCCCC1` stands inactive: 14.9%.
Regarding `CCCCOc1ccccc1C(=O)NCC1(N(C)C)CCCCC1`, the activity change, negative = inhibition is inactive: -8.59%.
As for `CN(C)CCOC(=O)C(O)(c1ccccc1)C1CCCCC1` (stereo not given), the activity change, negative = inhibition was inactive: 8.19%.
`CN(C)C1(CNC(=O)c2cccs2)CCCCC1`: the activity change, negative = inhibition is inactive: -10.1%.
In the case of `CCOc1cccc(C(=O)NCC2(N(C)C)CCCCC2)c1`, the activity change, negative = inhibition was inactive: 4.22%.
`COc1ccc(C(=O)NCC2(N(C)C)CCCCC2)cc1Cl`: the activity change, negative = inhibition is inactive: -0.199%.
Turning to `COc1cccc(C(=O)NCC2(N3CCOCC3)CCCCC2)c1`, the activity change, negative = inhibition is inactive: -12.5%.
For the compound `CC(C)COc1ccc(C(=O)NCC2(N(C)C)CCCCC2)cc1`, the activity change, negative = inhibition is inactive: -23.8%.
For `Cc1cccc(C(=O)NCC2(N(C)C)CCCCC2)c1`, the activity change, negative = inhibition was inactive: -1.6%.
`COc1cc(C(=O)NCC2(N(C)C)CCCCC2)cc(OC)c1OC`: the activity change, negative = inhibition is inactive: 11.2%.
Under `CC(C)Oc1ccc(C(=O)NCC2(N(C)C)CCCCC2)cc1` stands inactive: -14.4%.
